# Laboratory results: paper PMC10350911 (Analytical chemistry, 2023)
# Target: membrane-bound tumor necrosis factor α (Homo sapiens (assumed; labelled …, UniProt P01375)
# Assay: DEPC covalent labeling-mass spectrometry
binder,measurement,value
"infliximab (antibody, V domains shown) VH: EVKLEESGGGLVQPGGSMKLSCVASGFIFSNHWMNWVRQSPEKGLEWVAEIRSKSINSATHYAESVKGRFTISRDDSKSAVYLQMTDLRTEDTGVYYCSRNYYGSTYDYWGQGTTLTVSS VL: DILLTQSPAILSVSPGERVSFSCRASQFVGSSIHWYQQRTNGSPRLLIKYASESMSGIPSRFSGSGSGTDFTLSINTVESEDIADYYCQQSHSWPFTFGSGTNLEVK",binding result,binds
